Reference: patent US9212138B2, “Use of derivatives of indoles for the treatment of cancer” (CENTRE NATIONAL DE LA RECHERCHE SCIENTIFIQUE, priority 2009, dated 2015)

target: T1, MKLP-2 (RabK6) (Homo sapiens, UniProt O95235, S2A); assay: biochemical
T1 construct: Expression clones for MKLP-21-519 (coding for residues 1 to 519) were obtained as follows; His-tag; made in house; host or cells: E. coli BL21(DE3)
T1 sequence (O95235 1-519 S2A limits assumed): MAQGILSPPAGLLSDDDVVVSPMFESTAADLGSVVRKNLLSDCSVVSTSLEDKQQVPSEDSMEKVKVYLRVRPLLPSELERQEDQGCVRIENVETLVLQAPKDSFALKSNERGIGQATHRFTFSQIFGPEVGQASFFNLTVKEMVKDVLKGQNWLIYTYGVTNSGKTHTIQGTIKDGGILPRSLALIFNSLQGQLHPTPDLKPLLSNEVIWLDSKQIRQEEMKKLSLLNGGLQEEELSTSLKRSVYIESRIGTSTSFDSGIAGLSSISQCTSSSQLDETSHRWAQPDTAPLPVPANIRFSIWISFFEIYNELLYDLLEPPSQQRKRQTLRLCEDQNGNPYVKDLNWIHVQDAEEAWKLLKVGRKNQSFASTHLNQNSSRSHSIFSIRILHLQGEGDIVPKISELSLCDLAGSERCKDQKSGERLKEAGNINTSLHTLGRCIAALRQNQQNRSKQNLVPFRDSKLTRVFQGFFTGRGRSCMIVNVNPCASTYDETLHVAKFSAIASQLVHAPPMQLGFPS
Method: All experiments were performed at room temperature using a 96-well Sunrise photometer (Tecan, Maennedorf, Switzerland) at a final volume of 100 μl per well.
Steady-state ATPase rates were measured using the pyruvate kinase/lactate dehydrogenase-linked assay in buffer A25A (25 mM potassium ACES, pH 6.9, 2 mM MgAc2, 2 mM Na-EGTA, 0.1 mM Na-EDTA, 1 mM β-mercaptoethanol) supplemented with 1 mM MgATP; 2 mM PEP; 0.25 mM NADH; 3-10 μg/ml pyruvate kinase; 3 μg/ml lactate dehydrogenase and 8 μM taxol.
The data were analyzed using Kaleidagraph 3.0 (Synergy Software, Reading, Pa.) and Microsoft Excel to obtain the kinetic variables.
When necessary, the inhibitor concentrations were adapted depending on the initial IC50 value. Experiments were performed in triplicate and averaged data points are shown with error bars±SD.

SMILES | IC50 [µM]
N#C/C(=C\c1cccnc1)c1c[nH]c2ccc(Br)cc12 [Example 37, (Z)-2-(5-bromo-1H-indol-3-yl)-3-pyridin-3-yl-acrylonitrile] | 10 to 20
N#C/C(=C\c1cccnc1)c1c[nH]c2ccc(N)cc12 [Example 40, (Z)-2-(5-amino-1H-indol-3-yl)-3-pyridin-3-yl-acrylonitrile] | < 5
C(=C\c1c[nH]c2ccccc12)/c1cccnc1 [Example 57, (E)-3-(2-pyridin-3-yl-vinyl)-1H-indole] | 5 to 10
